# According to patent publication US7303915B2, “In vitro-differentiated retinal ganglion cells and method for producing same” (Wisconsin Alumni Research Foundation, priority 2005, dated 2007):
# Tested on: ERK2 T185/Y187
# Experiment: Kinetworks KPSS 2.1 phosphorylation screen, ERK2 T185/Y187
# Assay type: cell-based, rat
# Conditions: 1 μM for 5 minutes
smiles,measurement,value
CN[C@@H]1C[C@H]2O[C@@](C)([C@@H]1OC)n1c3ccccc3c3c4c(c5c6ccccc6n2c5c31)C(=O)NC4 [staurosporine],decrease in phosphorylation of ERK2 T185/Y187 vs control,59%
